Experimental data from US9676714B2, “Sulfonylindole derivatives and method for preparing the same” (Daewoong Pharmaceutical Co., Ltd., priority 2013, dated 2017).
pIC50: −log10 of the molar value.

The chains behind the UniProt entries cited, without tags or fusion partners.
UniProt P19156, whole entry: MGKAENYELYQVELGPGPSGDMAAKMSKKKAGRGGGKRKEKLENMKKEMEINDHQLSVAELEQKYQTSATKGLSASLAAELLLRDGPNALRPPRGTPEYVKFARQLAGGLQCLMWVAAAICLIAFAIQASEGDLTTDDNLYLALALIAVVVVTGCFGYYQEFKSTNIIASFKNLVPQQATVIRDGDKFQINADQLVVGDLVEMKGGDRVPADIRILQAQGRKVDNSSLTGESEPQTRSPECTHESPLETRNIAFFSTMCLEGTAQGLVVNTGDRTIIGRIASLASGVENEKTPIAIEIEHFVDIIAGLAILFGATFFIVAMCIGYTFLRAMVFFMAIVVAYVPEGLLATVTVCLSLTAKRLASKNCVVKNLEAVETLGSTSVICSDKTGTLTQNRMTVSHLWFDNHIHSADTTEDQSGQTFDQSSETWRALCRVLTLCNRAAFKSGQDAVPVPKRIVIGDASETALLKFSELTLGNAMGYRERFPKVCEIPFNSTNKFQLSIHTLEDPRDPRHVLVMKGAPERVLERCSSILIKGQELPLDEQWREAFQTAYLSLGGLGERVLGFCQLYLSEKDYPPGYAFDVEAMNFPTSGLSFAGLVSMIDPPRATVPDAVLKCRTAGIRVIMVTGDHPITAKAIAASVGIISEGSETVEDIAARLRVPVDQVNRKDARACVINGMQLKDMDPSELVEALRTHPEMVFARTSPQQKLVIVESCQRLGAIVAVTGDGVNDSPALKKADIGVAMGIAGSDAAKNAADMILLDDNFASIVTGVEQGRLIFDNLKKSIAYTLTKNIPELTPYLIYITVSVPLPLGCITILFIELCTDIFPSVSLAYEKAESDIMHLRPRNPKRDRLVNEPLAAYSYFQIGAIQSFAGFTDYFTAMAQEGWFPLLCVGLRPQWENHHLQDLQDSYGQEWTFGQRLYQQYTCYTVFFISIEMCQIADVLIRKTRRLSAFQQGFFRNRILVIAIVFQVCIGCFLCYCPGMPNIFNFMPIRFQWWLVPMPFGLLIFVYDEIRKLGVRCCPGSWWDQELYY
UniProt P18434, whole entry partner: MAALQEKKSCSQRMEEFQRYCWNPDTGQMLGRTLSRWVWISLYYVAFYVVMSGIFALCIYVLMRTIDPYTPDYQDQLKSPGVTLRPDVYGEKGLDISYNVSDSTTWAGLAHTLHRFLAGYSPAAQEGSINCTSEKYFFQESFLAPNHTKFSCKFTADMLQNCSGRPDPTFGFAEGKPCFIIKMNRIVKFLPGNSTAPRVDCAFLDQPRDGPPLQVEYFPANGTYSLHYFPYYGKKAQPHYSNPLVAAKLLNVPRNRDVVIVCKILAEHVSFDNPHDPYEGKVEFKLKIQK

Molecular target: proton pump (H+/K+-ATPase) (Sus scrofa, UniProt P19156)
Test: Measurement of inhibitory effects on proton pump (H+/K+-ATPase) activities
Settings: hog gastric vesicles, K+-specific H+/K+-ATPase activity, Tris-HCl buffer pH 7.4, 37° C. for 40 minutes, malachite green Pi readout
Description: 1) Preparation of Gastric Vesicles
Gastric vesicles were prepared from hog stomach via centrifugal separation (Edd C. Rabon et al., Preparation of Gastric H^+,K^+-ATPase, Methods in enzymology, vol. 157 Academic Press Inc., (1988), pp. 649-654). The protein contents of the thus prepared gastric vesicles were quantitated by Bicinchoninic Acid (BCA) kit.
2) Measurement of Inhibitory Effects on Proton Pump (H^+/K^+-ATPase) Activities
The inhibitory effects of the compounds of the present invention against proton pump activities were measured using a 96-well plate. In this assay, the K^+-specific H^+/K^+-ATPase activities were calculated based on the difference between the H^+/K^+-ATPase activity in the presence of K^+ and that in the absence of K. In the 96-well plate, 0.5% dimethyl sulfoxide (DMSO) in buffer was added to the negative and positive control groups, and the diluted compounds of the present invention were added to the test groups. […] The amount of monophosphate (Pi) in the reaction was measured at 570 nm using a micro plate reader (FLUOstar Omega, BMG LABTECH). The inhibition rates (%) were determined from the activity values of control groups and those of test compounds at various concentrations, and the […] of the test compounds were calculated based on the respective inhibition value (%) using the Logistic 4-parameter function of Sigmaplot 8.0 program.

| SMILES | pIC50 (tested form: hydrochloride (drawing prints 3HCl)) | pIC50 (tested form: hydrochloride (drawing prints 2HCl)) |
| --- | --- | --- |
| CNc1cn(S(=O)(=O)c2cccnc2)c2cc(Nc3ccc(C)cc3Cl)ccc12 | 5.83 |  |
| CNCc1cn(S(=O)(=O)c2cccnc2)c2cc(Oc3cc(Cl)ccc3[N+](=O)[O-])ccc12 |  | 5.67 |
